Data: US20220211718A1, “BCL-2 INHIBITORS FOR USE IN THE TREATMENT OF A BCL-2 MEDIATED CANCER CARRYING THE GLY101VAL MUTATION” (LES LABORATOIRES SERVIER, priority 2019, published 2022)

Tests used:
Type in all cases: binding
Bcl-2 Gly101Val mutant [1] = biological target: T1, Bcl-2 Gly101Val mutant (Homo sapiens, UniProt P10415, G101V); assay: Fluorescence quenching assay (PUMA peptide displacement), Example 1; settings: 1 nM protein, 100 nM PUMA peptide, 2 hours at room temperature, read-out: Bcl-2 Gly101Val mutant cKi mean
Description: (§1) An 11-point serial dilution of each compound was prepared in DMSO, the final buffer conditions were 10 mM 4-(2-hydroxyethyl)-1-piperazineethanesulfonic acid [HEPES], 150 mM NaCl, 0.05% Tween 20, pH 7.4 and 5% DMSO.

Bcl-2 wild-type protein = Bcl-2 wild-type protein (Homo sapiens, UniProt P10415); assay: as above; settings: 1 nM protein, 50 nM PUMA peptide, 2 hours at room temperature, read-out: Bcl-2 wild-type cKi mean
Description: as §1

Bcl-2 Ala113Gly mutant = Bcl-2 Ala113Gly mutant (Homo sapiens, UniProt P10415, A113G); assay: Fluorescence quenching assay (PUMA quench reagent displacement), Example 4; settings: read-out: Bel-2 Ala113Gly Mutant K1 mean
Description: (§2) […] […] […] […] […] […] […] […] […] […] […] […] […] […] […] […] […] […] […] […] […] […] […] […] […] […] […]

Bcl-2 Arg129Leu mutant = Bcl-2 Arg129Leu mutant (Homo sapiens, UniProt P10415, R129L); assay: as above; settings: read-out: Bel-2 Arg129Leu mutant K1 mean
Description: as §2

Bcl-2 Asp103Glu mutant = Bcl-2 Asp103Glu mutant (Homo sapiens, UniProt P10415, D103E); assay: as above; settings: 50 nM peptide, about 2 hours at 18° C., cKi for Compound A and B, eKi (estimated) for ABT-199 in most cases, read-out: Bel-2 Asp103Glu mutant K1 mean
Description: as §2

Bcl-2 Asp103Tyr mutant = Bcl-2 Asp103Tyr mutant (Homo sapiens, UniProt P10415, D103Y); assay: as above; settings: 50 nM peptide, about 2 hours at 18° C., ABT-199 inactive @1 μM, read-out: Bel-2 Asp103Tyr mutant K1 mean
Description: as §2

Bcl-2 Asp103Val mutant = Bcl-2 Asp103Val mutant (Homo sapiens, UniProt P10415, D103V); assay: as above; settings: 50 nM peptide, about 2 hours at 18° C., cKi for Compound A and B, eKi (estimated) for ABT-199 in most cases, read-out: Bel-2 Asp103Val mutant K1 mean
Description: as §2

Bcl-2 Gly101Val mutant [2] = biological target: T1, Bcl-2 Gly101Val mutant; assay: as above; settings: 100 nM peptide, about 2 hours at 18° C., cKi for Compound A and B, eKi (estimated) for ABT-199 in most cases, read-out: Bel-2 Gly101Val mutant K1 mean
Description: as §2

Structure (SMILES): O=C(c1cc(-c2cc3c(cc2C(=O)N2Cc4ccccc4C[C@H]2CN2CCOCC2)OCO3)n2c1CCCC2)N(c1ccccc1)c1ccc(O)cc1 [Compound A, N-(4-hydroxyphenyl)-3-{6-[((3S)-3-(4-morpholinylmethyl)-3,4-dihydro-2(1H)-isoquinolinyl)carbonyl]-1,3-benzodioxol-5-yl}-N-phenyl-5,6,7,8-tetrahydro-1-indolizine carboxamide]
- Ki (Bcl-2 Gly101Val mutant [1]): 23.7 nM
- Ki (Bcl-2 wild-type protein): 1.2 nM
- Ki (Bcl-2 Ala113Gly mutant): 7.5 nM
- Ki (Bcl-2 Arg129Leu mutant): 3.3 nM
- Ki (Bcl-2 Asp103Glu mutant): 2.3 nM
- Ki (Bcl-2 Asp103Tyr mutant): 5.6 nM
- Ki (Bcl-2 Asp103Val mutant): 3.7 nM
- Ki (Bcl-2 Gly101Val mutant [2]): 23 nM
